Laboratory results reported in paper PMC7375048, “The impact of acute rosiglitazone on insulin pharmacokinetics at the blood‐brain barrier” (Endocrinology, Diabetes & Metabolism, 2020).

How the values were obtained:
[1] = tested on: murine BBB; experiment: Blood-to-brain 125I-insulin transport, multiple-time regression analysis; assay type: in vivo, mouse; settings: CD-1 mice; label = treatment: 10 µg RSG iv 30 min before and/or 1 µg S961 co-injected iv with 125I-insulin; 0.5-10 min; albumin-corrected brain/serum ratio; slope ± SE, n = 6-10/group
Experimental: (§1) This experimental set‐up was based on previous studies investigating the acute effect of rosiglitazone. ^35 , ^36
Mice were decapitated, and the brain was collected immediately, dissected into the hypothalamus, olfactory bulb and remaining whole brain and weighed. Blood was centrifuged at 5400g for 10 min and serum collected. Radioactivity in 50 µL of serum and entire brain samples were counted in a gamma counter (Wizard2; Perkin Elmer).
Exposure time is calculated by the formula:(1) Exposure time=∫0tCp(t)dt/Cp(t) where Cp(t) is the level of radioactivity (cpm) in serum at time (t). Exposure time corrects for the clearance of peptide from the blood. […] The slope of the linearity measures K i and is reported with its standard error term. […] For cardiac perfusion studies, formula 2 is employed, using the brain/perfusate ratios and the clock time is used in place of exposure time.

[2] = tested on: murine BBB; experiment: Transcardiac brain perfusion of 125I-insulin, multiple-time regression analysis; assay type: in vivo, mouse; settings: no serum
From the text: as §1
The perfusate was freshly prepared for each study day. Perfusate was collected throughout the study to determine the average cpm/µL of perfusate. After perfusion, the olfactory bulb was collected and the brain dissected into regions (frontal/parietal/occipital cortex, striatum, hypothalamus, hippocampus, thalamus, cerebellum, midbrain and pons/medulla) according to Glowinski and Iversen; ^38 each region was weighed separately. The amount of radioactivity was determined by a gamma counter (Wizard2, Perkin Elmer). Brain/perfusate ratios are calculated by dividing the cpm in a gram of brain by the cpm in a µL of perfusate to yield units of µL/g.
Exposure time is calculated by the formula:(1) Exposure time=∫0tCp(t)dt/Cp(t) where Cp(t) is the level of radioactivity (cpm) in serum at time (t). Exposure time corrects for the clearance of peptide from the blood. […] The slope of the linearity measures K i and is reported with its standard error term. The y‐intercept of the linearity measures V i, the initial volume of distribution in brain at t = 0. ^37 Blasberg, Fenstermacher and Patlak originally described V i as the volume of test substance that rapidly and reversibly exchanges with the plasma (Blasberg 1983). For cardiac perfusion studies, formula 2 is employed, using the brain/perfusate ratios and the clock time is used in place of exposure time.

[3] = tested on: human brain endothelial cells; settings: cited from earlier work
[4] = CD-1 mice, 10 µg RSG iv 30 min before, ± SE, n = 7-11/group

- 125I-insulin BBB transport rate K i, whole brain [1]: 1.16 ± 0.23 µL/g‐min
- effect on rate of 125I-insulin BBB transport or vascular binding, cardiac perfusion ([2]; 10 µg RSG pretreatment, whole brain, olfactory bulb or hypothalamus): no difference
- 125I-insulin BBB transport rate K i following cardiac perfusion, whole brain ([2]; CD-1 mice, 10 µg RSG iv 30 min before, Zlokovic's buffer 2 mL/min, 1-5 min, ± SE, n = 7-11/group): 1.90 ± 0.50 µL/g‐min
- 125I-insulin BBB transport rate K i following cardiac perfusion, hypothalamus [2, 4]: 4.55 ± 1.65 µL/g‐min
- 125I-insulin BBB transport rate K i following cardiac perfusion, olfactory bulb [2, 4]: 2.53 ± 0.73 µL/g‐min
- 125I-insulin vascular binding V i following cardiac perfusion, hypothalamus [2, 4]: -1.8 ± 5.4 µL/g
- 125I-insulin vascular binding V i following cardiac perfusion, olfactory bulb [2, 4]: 18.6 ± 2.4 µL/g
- 125I-insulin vascular binding V i following cardiac perfusion, whole brain [2, 4]: 7.7 ± 1.7 µL/g
Compound: CN(CCOc1ccc(CC2SC(=O)NC2=O)cc1)c1ccccn1 (stereo not drawn) [RSG, rosiglitazone maleate]
- brain‐to‐blood transport relative to blood‐to‐brain influx [3]: two times greater

Structures can show the parent of a compound that is named as a salt.
